The text below walks through data of patent US7241791B2, “Substituted 4-(indazol-3-yl)phenols” (Wyeth, priority 2002, dated 2007).

By UniProt entry, the sequences of proteins in these tests, tags left out.
UniProt P03372, whole entry: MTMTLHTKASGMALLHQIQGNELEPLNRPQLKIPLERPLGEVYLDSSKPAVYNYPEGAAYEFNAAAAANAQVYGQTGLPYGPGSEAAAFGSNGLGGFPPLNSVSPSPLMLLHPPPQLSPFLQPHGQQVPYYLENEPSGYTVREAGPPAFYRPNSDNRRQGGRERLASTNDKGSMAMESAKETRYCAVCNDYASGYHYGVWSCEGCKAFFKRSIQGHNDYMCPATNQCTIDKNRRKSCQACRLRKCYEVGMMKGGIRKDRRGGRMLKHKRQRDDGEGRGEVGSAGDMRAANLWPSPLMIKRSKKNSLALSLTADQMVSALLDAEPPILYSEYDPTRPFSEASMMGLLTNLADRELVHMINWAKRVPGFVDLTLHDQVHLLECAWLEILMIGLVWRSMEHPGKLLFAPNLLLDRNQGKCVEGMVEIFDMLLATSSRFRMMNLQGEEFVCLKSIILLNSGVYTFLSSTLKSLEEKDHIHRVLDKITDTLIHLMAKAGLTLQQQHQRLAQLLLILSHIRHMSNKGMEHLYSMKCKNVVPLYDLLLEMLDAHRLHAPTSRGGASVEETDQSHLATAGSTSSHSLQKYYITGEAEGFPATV

For experiment [1], the target named is T1, human ERα (Homo sapiens, UniProt P03372). The experiment is described as follows: NF-κB luciferase reporter (ER/NF-KB-luc) in Ad5-wt-hERα infected HAECT-1 cells. The note with it: for IC50: IL-1β.
For experiment [2], the target named is T1, human ERα. The experiment is described as follows: Creatine kinase expression (ER/CK) in Ad5-wt-hERα infected HAECT-1 cells.
The mark [3] stands for this setting: ER/NF-KB-luc IC50, Ad5-wt-ER infected HAECT-1 cells.

Where two headings read alike, the source gives them in different places.

As to “4-(7-fluoro-1-(3,3,3-trifluoropropyl)-1H-indazol-3-yl)phenol [Example 62]”, the “ER/NF-KB-luc % E2” value at human ERα [1] (efficacy relative to the maximal inhibition observed with E2) worked out at 82 % E2. On human ERα [1] (read-out: ER/NF-KB-luc IC50, Ad5-wt-ER infected HAECT-1 cells), the IC50 was 0.047 µM. The “ER/CK % E2” value at human ERα [2] (efficacy relative to the maximal stimulation observed with E2) came to 30 % E2. In addition, the EC50 at human ERα [2] (read-out: ER/CK EC50, Ad5-wt-ER infected HAECT-1 cells) stood at 0.253 µM.
`CC(C)n1nc(-c2ccc(O)cc2)c2cccc(-c3ccccc3)c21` [Example 236, 4-(1-isopropyl-7-phenyl-1H-indazol-3-yl)phenol]: at human ERα [1] (setting [3]), the IC50 turned out to be 0.047 µM.
As to `Cc1cc(O)ccc1-c1nn(C(C)C)c2c(-c3ccc(O)c(O)c3)cccc12` [Example 250, 4-[3-(4-hydroxy-2-methylphenyl)-1-isopropyl-1H-indazol-7-yl]-benzene-1,2-diol], at human ERα [1] (setting [3]), the IC50 is 0.047 µM.
